Our source for the phagocytosis values is patent US20210379153A1, “COMBINATION THERAPIES COMPRISING SIRP ALPHA-BASED CHIMERIC PROTEINS” (Shattuck Labs, Inc., priority 2018, published 2021).

For the assay, the system named is MCF7 (low Her2-expressing breast cancer cell line). The experiment in a line: Macrophage engulfment of MCF7 cells. The settings on record: monotherapy. It counts as cell-based, human. The source says: In particular, EGFR+ melanoma (A431) cells and lung adenocarcinoma (HCC827) cells, EGFR− chronic myeloid leukemia (K562) cells, and HER2+ breast cancer (HCC1954HER2 HI and MCF7HER2 LOW) cells were used to facilitate combinations with an anti-EGFR antibody (cetuximab) and an anti-HER2 antibody (trastuzumab).

As to “trastuzumab: anti-Her2 antibody [reference compound]”, the phagocytosis entry is on record as “did not induce phagocytosis”.
